This is an account of results in patent US20080317753A1, “SELECTING PATIENTS FOR THERAPY WITH A HER INHIBITOR” (GENENTECH, INC., priority 2004, published 2008).

In this assay the test system is ovarian cancer, primary peritoneal carcinoma or fallopian tube carcinoma. In words: Example 3: planned therapy of patients with gene expression profile associated with HER2 phosphorylation. Format: in vivo, human. The procedure:
Patients who have progressed while receiving a platinum-based chemotherapy regimen, or patients who have progressed within 6 months after completing a platinum-based regimen, will be eligible for this study. Patients will be randomized to either receive gemcitabine in combination with pertuzumab, or gemcitabine in combination with placebo. Gemcitabine will be administered at 1000 mg/m^2 on days 1 and 8 of a 21 day cycle for a maximum of 8 cycles. Gemcitabine will be infused first over 30 minutes. Dose reductions will be permitted for toxicity. […] Response will be assessed at Cycles 3, 5, 7, 9, 13 and 17. Measurable disease will be assessed using the Response Evaluation Criteria for Solid Tumors (RECIST), by clinical evaluation and CT scan or equivalent. Response for subjects with evaluable disease will be assessed according to changes to CA-125 and clinical and radiologic evidence of disease. Responses should be confirmed 4-8 weeks after the initial documentation of response.

As for “pertuzumab: humanized antibody comprising light and heavy chain sequences SEQ ID NOS. 13 and 14; inhibits dimerization of HER2 with other HER receptors”, under “gemcitabine in combination with pertuzumab, 840 mg loading dose, then 420 mg, 21 day cycle”, the “signs or symptoms of cancer by primary or secondary efficacy endpoints” value was “improvement in the signs or symptoms”. Also, under “patients with a gene expression profile associated with HER2 phosphorylation”, the “clinical benefit, patients with expression profile compared to patients without” value is listed as “greater clinical benefit”.
